Assay results published in publication PMC11140586.

Molecular target: apolipoprotein E (human (endogenous in CSF and plasma)) (UniProt P02649)
Assay: co-IP + ELISA; immunodepletion of ApoE-positive vesicles from 200 uL human CSF (anti-ApoE antibody overnight at 4 C, protein A/G agarose 6 h at RT); aSN in the sample measured by ELISA before and after depletion; PD patients and controls

percent of aSN bound to lipoproteins (removed with ApoE-positive vesicles), PD samples: 48%
percent of aSN bound to lipoproteins (removed with ApoE-positive vesicles), controls: 44%
Substance: α-synuclein (from UniProt P37840 1-140) (natural protein)
